Reference: US8034787B2, “Enzyme-cleavable prodrug compounds” (Medarex, Inc., priority 1998, dated 2011)

Assay: Acute toxicity of intravenous injection in mice with heparin pretreatment
Assay type: in vivo
Source text: It is known that acute toxicity likely occurs through the interaction of positively charged polymers, such as protamines, polylysine, or their aggregates, and the luminal surface of blood vessels. DeLucia, et al., “Efficacy and toxicity of differently charged polycationic protamine-like peptides for heparin anticoagulation reversal,” J Vasc. Surg. 18:49-60 (1993). Ekrami, et al., “Carbamylation decreases the cytotoxicity but not the drug-carrier properties of polylysines,” J. Drug Targ. 2:469-475 (1995). It has been further shown that heparin reduces the toxic effects of protamine sulfate on rabbit myocardium. Wakefield, et al., “Heparin-mediated reductions of the toxic effects of protamine sulfate on rabbit myocardium,” J Vasc. Surg. 16:47-53 (1992). To test the hypothesis that the acute toxicity seen here was due to positively charged prodrug aggregates, βAla-Leu-Ala-Leu-Dox (174 μMol/ml) was given to mice following a 1 hr pretreatment with 4,000 I.U. heparin, intravenously, as compared to control.

[1] = heparin pretreatment i.p. 4000 I.U.
[2] = heparin pretreatment i.p. 8000 I.U.
[3] = heparin pretreatment i.v. 4000 I.U.

In the case of `COc1cccc2c1C(=O)c1c(O)c3c(c(O)c1C2=O)C[C@@](O)(C(=O)CO)C[C@@H]3O[C@H]1C[C@H](NC(=O)[C@H](CC(C)C)NC(=O)[C@H](C)NC(=O)[C@H](CC(C)C)NC(=O)CCN)[C@H](O)[C@H](C)O1` [βAla-Leu-Ala-Leu-Dox, β-Ala-Leu-Ala-Leu-Doxorubicin], the “Acute toxicity (Proportion)” value (Control (iv), heparin 0 I.U.) is reported as 5/5, the “Survival time” value (Control (iv), heparin 0 I.U.) is reported as 0 days and the “Acute toxicity (Proportion)” value [1] is reported as 3/8. The “Survival [Proportion]” value [1] was “[5/8]”, the “Survival time” value [1] was >9 days and the “Acute toxicity (Proportion)” value [2] was 0/3. For the same compound, the “Survival [Proportion]” value [2] was “[3/3]”, the “Survival time” value [2] was >11 days and the “Acute toxicity (Proportion)” value [3] was 1/3. For the same compound, the “Survival [Proportion]” value [3] was “[2/3]” and the “Survival time” value [3] was >11 days.
